Test results as given in publication PMC6371206 (ACS Pharmacology & Translational Science, 2019).

Test system: hD2R
Experiment: Pairwise bias factor calculation
Type: cell-based, human
Settings: logarithmic scale; relative to quinpirole; 30 min data

## CCCN1CCC[C@@H]2Cc3n[nH]cc3C[C@H]21 [quinpirole, reference compound]
  Bias factor GoA−βarrestin: 0.00
  Bias factor cAMP−βarrestin: 0.00
